Protein sequences, listed by entry. Tags and fused reporters are not part of them.
UniProt P35462, whole entry: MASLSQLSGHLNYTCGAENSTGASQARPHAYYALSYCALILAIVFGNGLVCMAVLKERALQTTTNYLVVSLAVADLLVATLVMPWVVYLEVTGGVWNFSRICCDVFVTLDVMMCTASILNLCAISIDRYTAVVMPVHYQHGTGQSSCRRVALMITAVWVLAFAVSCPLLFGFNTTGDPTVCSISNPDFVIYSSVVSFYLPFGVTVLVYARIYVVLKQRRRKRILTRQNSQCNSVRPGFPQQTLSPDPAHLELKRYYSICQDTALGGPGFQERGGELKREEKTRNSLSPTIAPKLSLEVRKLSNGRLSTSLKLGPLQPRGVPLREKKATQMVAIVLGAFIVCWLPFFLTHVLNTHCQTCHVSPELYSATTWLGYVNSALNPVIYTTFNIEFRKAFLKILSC
UniProt P21728, whole entry: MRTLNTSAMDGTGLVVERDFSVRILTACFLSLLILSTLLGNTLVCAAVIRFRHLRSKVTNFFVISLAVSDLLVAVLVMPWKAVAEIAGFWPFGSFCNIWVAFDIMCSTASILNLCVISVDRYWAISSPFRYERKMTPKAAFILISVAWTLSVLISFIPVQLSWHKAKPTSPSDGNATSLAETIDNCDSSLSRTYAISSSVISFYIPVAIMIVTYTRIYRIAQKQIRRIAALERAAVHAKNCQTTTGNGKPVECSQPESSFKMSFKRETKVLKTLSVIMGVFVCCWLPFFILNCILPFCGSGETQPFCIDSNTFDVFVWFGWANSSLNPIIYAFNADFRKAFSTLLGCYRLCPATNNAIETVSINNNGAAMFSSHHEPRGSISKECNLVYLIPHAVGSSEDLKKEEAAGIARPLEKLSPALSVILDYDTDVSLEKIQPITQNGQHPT

According to ChEMBL document CHEMBL3877260, “Synthesis and evaluation of C9 alkoxy analogues of (-)-stepholidine as dopamine receptor ligands” (Eur J Med Chem, 2017):

What was measured:
D(3) dopamine receptor = D(3) dopamine receptor (Homo sapiens, UniProt P35462); test: Displacement of [3H]N-methylspiperone from human D3 receptor expressed in HEKT cell membranes at 10 uM after 90 mins by microbeta scintillation counting method relative to control
D(1A) dopamine receptor = D(1A) dopamine receptor (Homo sapiens, UniProt P21728); test: Displacement of [3H]SCH23390 from human D1 receptor expressed in HEKT cell membranes at 10 uM after 90 mins by microbeta scintillation counting method relative to control

CCC(C)Oc1c(O)ccc2c1CN1CCc3cc(OC)c(O)cc3[C@@H]1C2 (some centres not stated)
inhibition (D(3) dopamine receptor): > 50% | inhibition (D(1A) dopamine receptor): > 50%
